Results as given in ChEMBL document CHEMBL5331113 (J Med Chem, 2023).
Activity calls are given as the source filed them. The calls are words filed in the database; no cut-off is given here.

Biological target: T1, Succinate receptor 1 (Mus musculus) (UniProt Q99MT6)
T1 sequence (whole entry): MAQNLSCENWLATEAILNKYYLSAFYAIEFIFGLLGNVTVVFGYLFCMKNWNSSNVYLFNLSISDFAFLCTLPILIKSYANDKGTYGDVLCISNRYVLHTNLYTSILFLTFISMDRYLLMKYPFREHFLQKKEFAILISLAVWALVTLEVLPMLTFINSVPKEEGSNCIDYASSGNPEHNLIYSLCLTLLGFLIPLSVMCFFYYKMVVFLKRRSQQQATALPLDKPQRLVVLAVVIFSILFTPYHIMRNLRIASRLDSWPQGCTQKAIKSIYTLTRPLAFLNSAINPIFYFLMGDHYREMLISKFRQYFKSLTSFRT
Experiment: Binding affinity to N-terminal Nluc-tagged mouse succinate receptor 1 expressed in human Flp-In-T-REx-293 cells upto 10 uM incubated for 5 mins by BRET assay
Type: cell-based

Question: For `Cc1cc(CN2CCN(CCNC3C=CC([N+](=O)[O-])c4nonc43)CC2)ccc1-c1cccc(C(=O)Nc2ccccc2CC(=O)O)c1` (stereo unspecified), which Activity is on record?
Answer: inactive
